## Experimental melting point values from OPERA 2.9

From the experimental data distributed with OPERA 2.9.

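These are experimental values that the OPERA curators gathered from public databases to train and test their QSAR models. The files give a single number for a compound and property, which may rest on several reports. Method and conditions are not stated for these values. The measured form (salt, isomer or mixture) is not always the one drawn. Unmarked limits or estimates from the upstream databases cannot be ruled out.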

Melting points are in °C. "via" names the databases from which the curators took the value.

compound,melting point (°C),via
C=CC(=O)NCNC(=O)C=C,180,"PubChem, eChemPortal"
O=C(NC(O)C(Cl)(Cl)Cl)NC(O)C(Cl)(Cl)Cl (configuration not stated),196,PubChem
Cc1cccc(N2CCNCC2)c1C,149,OCHEM
CC(C)=NN(c1ccccc1)P(=O)(N1CC1)N1CC1,120,OCHEM
Cc1cc(C(=O)O)c(C)n1Cc1ccccc1,198,OCHEM
CC1(C)C(C(=O)c2cn(CCCCCF)c3ccccc23)C1(C)C,76.5,PubChem
CS(=O)(=O)O.CS(=O)(=O)O.NN=C(N)N,146,eChemPortal
CN1[C@@H]2C[C@@H]3C[C@H]1[C@H](O)[C@H]2O3,108,OCHEM
CNC(C)Cc1ccc2c(c1)OCO2.Cl (racemic),150,OCHEM
CC(Oc1ccc(Br)cc1)C(=O)O (configuration not stated),119,OCHEM
CCCCCCCCO[PH](=O)OCCCCCCCC,-12.3,eChemPortal
Cc1cc(NC(=O)CCl)no1,186,OCHEM
C=CCC1(C2C=CCC2)C(=O)NC(=O)NC1=O (configuration not stated),140,OCHEM
NC(=O)N1CCC(=O)CC1,138,OCHEM
NCC(O)c1ccc(F)cc1 (configuration not stated),66,OCHEM
c1cc(N(CC2CO2)CC2CO2)ccc1OCC1CO1 (configuration not stated),-39.53,eChemPortal
C[C@]12CC[C@H](O)C[C@H]1CC[C@@H]1[C@@H]2C[C@@H](O)[C@]2(C)[C@@H](C3=CC(=O)OC3)[C@@H](O)C[C@]12O,157,OCHEM
CC(C)[C@@H](Nc1ccc(C(F)(F)F)cc1Cl)C(=O)OC(C#N)c1cccc(Oc2ccccc2)c1 (some centres undefined),-14.1,OCHEM
C[C@H]1CC[C@@H]2[C@@H](C)[C@H]3[C@H](C[C@H]4[C@@H]5CC=C6C[C@@H](O[C@@H]7O[C@H](CO)[C@H](O)[C@H](O[C@@H]8O[C@H](CO)[C@@H](O)[C@H](O)[C@H]8O)[C@H]7O[C@@H]7O[C@@H](C)[C@H](O)[C@@H](O)[C@H]7O)CC[C@]6(C)[C@H]5CC[C@]34C)N2C1,286,PubChem
CC(=O)Nc1ccc(-c2ccccc2)cc1,172,PubChem
N=C(N)NN.O=S(=O)(O)O,125.8,eChemPortal
CCN(CCCl)c1ccc(C=O)cc1,-48,eChemPortal
C[C@@]12CC[C@@H]3[C@H](CCC4CCCC[C@]43C)[C@H]1CCC2=O (stereo not given in full),119,QSARDB
Fc1ccc2c(C3=CCNCC3)c[nH]c2c1,174,OCHEM
CC[C@]12CC[C@H]3[C@@H](CCC4=CC(=O)CC[C@@H]43)[C@@H]1CCC2=O,176,eChemPortal
CC(C)=CCC1(C)C(=O)NC(=O)NC1=O,193,OCHEM
CCOP(=S)(OCC)N1C(=O)c2ccccc2C1=O,82,QSARDB
CC(=O)O.CC(=O)O.CC(=O)O.N=C(N)NCCCCCCCCNCCCCCCCCNC(=N)N,144,OCHEM
COc1ccc(CN2CCNCC2)cc1OC,33.5,OCHEM
CCCCCC1(CC)C(=O)NC(=O)NC1=O,135,OCHEM
O=[N+]([O-])CC[N+](=O)[O-],39.5,OCHEM
CCN(CC)P(Cl)(Cc1ccccc1)(c1ccccc1)c1ccccc1,217.5,eChemPortal

A selection of 5 entries from above:

compound,melting point (°C),via
c1cc(N(CC2CO2)CC2CO2)ccc1OCC1CO1 (configuration not stated),-39.53,eChemPortal
C[C@]12CC[C@H](O)C[C@H]1CC[C@@H]1[C@@H]2C[C@@H](O)[C@]2(C)[C@@H](C3=CC(=O)OC3)[C@@H](O)C[C@]12O,157,OCHEM
Fc1ccc2c(C3=CCNCC3)c[nH]c2c1,174,OCHEM
CC(Oc1ccc(Br)cc1)C(=O)O (configuration not stated),119,OCHEM
NC(=O)N1CCC(=O)CC1,138,OCHEM